Test results reported in US11124523B2, “2,6-dioxaspiro [4,5] decane derivatives and preparation method therefor and pharmaceutical applications thereof” (SHANDONG LUYE PHARMACEUTICAL CO., LTD., priority 2017, dated 2021).
pEC50: −log10 of the molar value. Marks after values point to notes of the source that are not given here.

Protein sequences, listed by entry. Tags and fused reporters are not part of them.
UniProt P35372, whole entry: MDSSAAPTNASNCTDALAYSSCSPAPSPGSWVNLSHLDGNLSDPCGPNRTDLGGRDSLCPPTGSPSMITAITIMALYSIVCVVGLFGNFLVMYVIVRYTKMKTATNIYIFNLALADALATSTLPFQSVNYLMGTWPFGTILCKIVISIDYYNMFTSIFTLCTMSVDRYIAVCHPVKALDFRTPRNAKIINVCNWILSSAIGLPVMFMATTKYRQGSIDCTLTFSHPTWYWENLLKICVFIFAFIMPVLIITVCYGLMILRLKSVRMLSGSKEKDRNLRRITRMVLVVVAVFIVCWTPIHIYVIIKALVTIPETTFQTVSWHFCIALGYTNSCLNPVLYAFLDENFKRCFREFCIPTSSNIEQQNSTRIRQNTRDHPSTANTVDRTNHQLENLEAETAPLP

Tests used:
[1] = target: T1, human μ-subtype opioid receptor (hMOR) (Homo sapiens (Human), UniProt P35372); assay: MOR β-arrestin-2 agonist activity test; type: cell-based; conditions: for MOR β-arrestin-2 Emax: maximum effect of enkephalin DAMGO was 100%, about 0% = no actual agonist activity; for pEC50: read-out: MOR β-arrestin-2 EC50, >30000 nM = greater than the highest detection concentration
[2] = target: T1, human μ-subtype opioid receptor (hMOR); assay: MOR cAMP agonist activity test; type: cell-based; conditions: maximum effect of enkephalin DAMGO was 100%
[3] = Metabolic stability in liver microsomes; type: in vitro ADME; conditions: human liver microsomes 0.5 mg protein/mL; 45 mg microsome protein/g liver, 20 g liver/kg
Protocol: Test 3: Metabolic Stability in Liver Microsomes
3.1 Experimental Purpose: To test the metabolic stability of the compounds of the present disclosure in human liver microsomes
a. All samples as well as testosterone, diclofenac and propafenone acting as reference substances were dissolved in DMSO to a storage concentration of 10 mM.
b. Intermediate Solution: 5 μL of the substance to be tested or the reference substance was diluted with 45 μL of DMSO (with 450 μL of 1:1 methanol/water).
c. Working Solution: the intermediate solution was diluted with 450 μL of 100 mM potassium phosphate buffer solution (pH 7.4).
Assay Buffer: 100 mM potassium phosphate buffer (pH 7.4) • 10 mM MgCl2
Liver Microsome Solution (final concentration: 0.5 mg protein/mL):
Human liver microsomes, obtained from BD, Cat No. 452117, Lot No. 38291
b. 10 μL of the working solution containing the substance to be tested or the reference substance was added to each of plates (T0, T5, T10, T20, T30, T60, NCF60).
c. The liver microsome solution was dispensed into a 96-well plate in an amount of 680 μL/well, then 80 was added, and then T was added to each of the plates. The above incubation plate was placed at 37° C. and pre-incubated for approximately 10 minutes.
d. 10 μL of 100 mM potassium phosphate buffer was added to each well in the NCF60 plate.
e. […]
T1/2 and Clint(mic) were calculated by the following formula: […]

| SMILES | MOR β-arrestin-2 Emax ([1]; tested form: HCl) | MOR cAMP Emax ([2]; tested form: HCl) [%] | MOR β-arrestin-2 Emax [1] | MOR cAMP Emax [2] [%] | Intrinsic Clearance CLint(liver) in Human Liver [3] [mL/min/kg] | pEC50 [1] |
| --- | --- | --- | --- | --- | --- | --- |
| COc1ccsc1CNCC[C@@]1(c2ccccn2)CCO[C@@]2(CCOC2)C1 | about 0%* |  |  |  |  |  |
| COc1ccsc1CNCC[C@]1(c2ccccn2)CCO[C@@]2(CCOC2)C1 | about 0%* | 39.7 |  |  |  |  |
| COc1ccsc1CNCC[C@]1(c2ccccn2)CCO[C@]2(CCOC2)C1 | about 0%* | 30.8 |  |  |  |  |
| Fc1ccc([C@]2(CCNCc3scc4c3CCCC4)CCO[C@]3(CCOC3)C2)nc1 |  |  | about 0%* |  |  |  |
| COc1ccsc1CNCC[C@@]1(c2ccccn2)CCO[C@]2(CCOC2)C1 (single isomer, unassigned) |  |  | about 0%* | 48.9 | 9.3 |  |
| Fc1ccc([C@]2(CCN[C@@H]3CCc4ccccc43)CCO[C@]3(CCOC3)C2)nc1 (single isomer, unassigned) |  |  | about 0%* | 11.0 |  | < 4.52 |
| Fc1ccc([C@]2(CCN[C@H]3CCc4ccccc43)CCO[C@]3(CCOC3)C2)nc1 (single isomer, unassigned) |  |  | about 0%* | 90.0 | 20.0 | < 4.52 |
